Experiment: Body weight in HT-29 xenograft study (Example 1)
Format: in vivo, CB17SCID male mice
Method: 48 CB17SCID male mice were implanted with 2.5×10^6 HT29 cells. Growth of the tumor was calculated for each animal using a caliper and the equation: V=π×ab^2/6.
Mouse weight and tumor volume measurements were taken on days 0, 3, 6, 9, 12, 15, 18, 21, and 22 following randomization.

Q: With `[2H]C([2H])([2H])c1cc(Br)cc2c1O[C@H](C(F)(F)F)C(C(=O)O)=C2` [Compound A01, (S)-6-bromo-8-trideuteromethyl-2-(trifluoromethyl)-2H-chromene-3-carboxylic acid] as the molecule, how does the Body weight (Day 3, A01 10 mg/kg oral daily) read?
A: The Body weight was 22.7 g.

Q: And the Body weight (Day 9, A01 1 mg/kg oral daily)?
A: The Body weight was 20.7 g.

Q: And the Body weight (Day 9, A01 10 mg/kg oral daily)?
A: Its Body weight is 21.2 g.

Q: What about the Body weight (Day 12, A01 1 mg/kg oral daily) of the same molecule?
A: Its Body weight is 21.7 g.

Q: And the Body weight (Day 12, A01 10 mg/kg oral daily)?
A: Its Body weight is 20.8 g.

Q: What about the Body weight (Day 15, A01 10 mg/kg oral daily) of the same molecule?
A: Its Body weight is 21.4 g.

Q: And the Body weight (Day 18, A01 10 mg/kg oral daily)?
A: Its Body weight is 21.4 g.

Q: And the Body weight (Day 21, A01 10 mg/kg oral daily)?
A: The Body weight was 21.4 g.

Q: What about the Body weight (Day 22, A01 10 mg/kg oral daily) of the same molecule?
A: Its Body weight is 21.7 g.

— patent US12544356B2, “Combination of a chromene compound and a second active agent” (EUCLISES PHARMACEUTICALS, INC., priority 2016, dated 2026)
